Target: Nociceptin receptor (Homo sapiens, UniProt P41146)
Test: Agonist activity at human recombinant NOP receptor expressed in CHO cells co-expressing C-terminally modifed Gaqi5 protein by Fluo-4AM dye based calcium mobilization assay

SMILES: O.O=C(O)C(=O)O.O=C1NCN(c2ccccc2)C12CCN([C@H]1CCOc3ccccc31)CC2
- pEC50: 6.68

SMILES: O.O=C(O)C(=O)O.O=C1NCN(c2ccccc2)C12CCN(C1CCOc3ccccc31)CC2 (centres undefined)
- pEC50: 6.8

SMILES: O=C(O)C(=O)O.O=C1NCN(c2ccccc2)C12CCN(C1CCOc3cccc(F)c31)CC2 (centres undefined)
- pEC50: 6.37

SMILES: O.O=C(O)C(=O)O.O=C1NCN(c2ccccc2)C12CCN([C@@H]1CCOc3ccccc31)CC2
- pEC50: 7.34
